According to US9643995B2, “Triterpene glycoside and triterpene compositions and methods of using same” (Research Foundation of the City University of New York, priority 2013, dated 2017):

Experiments:
MDA-MB-453 = MDA-MB-453 (Yakes et al., 2002); cited from earlier work
MDA-MB-453 cells [1] = experiment: Apoptosis: DNA fragmentation; type: cell-based, human; details: actein 2 μg/ml, Herceptin 16 μg/ml, 48 h
Experimental: (§1) Actein synergizes with herceptin on apoptosis: To provide further evidence of an interaction with Her2, we tested the effect of actein (2 μg/ml) alone, or combined with the antibody to Her2 Herceptin (trastuzumab) (16 μg/ml), on measures of apoptosis, caspase 3 activity or DNA fragmentation, after treating MDA-MB-453 cells for 48 h. The results are as follows (fold relative to control): for caspase 3: DMSO (control): 1.0; actein: 1.29; Herceptin: 1.284; actein+Herceptin: 1.955 (FIG. 1B); for DNA fragmentation: DMSO (control) 1.0; actein: 0.89; Herceptin: 1.09; actein+Herceptin: 1.34 (p<0.01) (FIG. 3B). Thus, actein induces apoptosis and enhances the apoptotic activity of Herceptin.

MDA-MB-453 cells [2] = experiment: Apoptosis: caspase 3 activity; type: cell-based, human; details: actein 2 μg/ml, Herceptin 16 μg/ml, 48 h
Experimental: as §1

Herceptin: Anti-Her2 specific antibody [reference compound]
sensitivity of cells to agent (MDA-MB-453): relatively resistant | DNA fragmentation (MDA-MB-453 cells [1]): 1.09 fold relative to control | caspase 3 activity (MDA-MB-453 cells [2]): 1.284 fold relative to control
